Drawing on ChEMBL document CHEMBL5236598, “Lead Optimization and Avoidance of Metabolic-perturbing Motif Developing Novel Diarylpyrimidines as Potent HIV-1 NNRTIs” (J Med Chem, 2022), this text covers Kd for one molecule.

The target in this assay is Human immunodeficiency virus type 1 reverse transcriptase (Human immunodeficiency virus 1, UniProt Q72547). The assay can be described thus: Binding affinity to HIV-1 reverse transcriptase assessed as dissociation constant by SPR analysis. Background: In SPR one partner is held on a chip, and binding of the other changes the refractive index at the surface.

Molecules are shown by their SMILES.

In the case of `Cc1cc(C#N)cc(C)c1Oc1nc(Nc2ccc(C#N)cc2)nc(N)c1Br` [ETRAVIRINE], the equilibrium dissociation constant (Kd) (commonly the constant that tells how readily two partners part at equilibrium) was found to be 1460 nM.
